Laboratory results taken from US9566342B2, “Compounds for treatment of heart failure” (SOLVOTRIN INNOVATIONS LIMITED, priority 2010, dated 2017).

Legend:
MMP-9 = experiment: PMA stimulated fibrosarcoma cell model (HT1080 cells), MMP-9; type: cell-based; conditions: 100 micromolar
MMP-2 = experiment: PMA stimulated breast cancer cell model (HT1080 cells), pro-MMP-2 / MMP-2; type: cell-based; conditions: 100 micromolar

C[C@H]1c2cccc(O)c2C(=O)C2=C(O)[C@]3(O)C(=O)C(C(=O)NCN(CCO[N+](=O)[O-])CCO[N+](=O)[O-])=C(O)[C@@H](N(C)C)[C@@H]3[C@@H](O)[C@@H]21 [SI1004, amido-N—[N,N-diethylnitrate-aminomethyl]-α-6-deoxy-5-oxytetracycline]
MMP-9 production (MMP-9): reduce MMP-9 production
pro-MMP-2 production (MMP-2): reduce pro-MMP-2 production

Amido-N-[3-(Nitrooxymethyl)Piperidinomethyl]-α-6-Deoxy-5-Oxytetracycline
MMP-9 production (MMP-9): reduce MMP-9 production
pro-MMP-2 production (MMP-2): to a lesser extent
